How the values were obtained:
Assay type in all cases: functional, cell-based
Vasopressin V1a receptor = Vasopressin V1a receptor (Homo sapiens, UniProt P37288); assay: Agonist activity at human V1A receptor expressed in HEK cells assessed as increase in intracellular calcium flux at 1 uM incubated for 45 mins by Indo1-AM dye based fluorescence assay relative to AVP
[1] = target: T1, Oxytocin receptor (Homo sapiens) (UniProt P30559); assay: Agonist activity at human OTR receptor expressed in HEK293FT cells assessed as stimulation of calcium release by Aequorin based assay relative to OT
T1 sequence (whole entry): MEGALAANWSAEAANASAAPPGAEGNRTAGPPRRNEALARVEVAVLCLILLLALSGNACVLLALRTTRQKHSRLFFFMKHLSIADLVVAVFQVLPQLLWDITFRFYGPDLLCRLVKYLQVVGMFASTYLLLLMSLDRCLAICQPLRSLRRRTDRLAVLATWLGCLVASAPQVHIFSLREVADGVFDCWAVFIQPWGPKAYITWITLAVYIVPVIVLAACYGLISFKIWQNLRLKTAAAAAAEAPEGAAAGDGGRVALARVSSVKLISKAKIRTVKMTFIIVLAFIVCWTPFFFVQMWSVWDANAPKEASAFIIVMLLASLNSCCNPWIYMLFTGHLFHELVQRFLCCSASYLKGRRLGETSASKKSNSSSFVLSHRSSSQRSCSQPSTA

Chains of the proteins cited; added tags and fusions are not shown.
UniProt P37288, whole entry, looked up: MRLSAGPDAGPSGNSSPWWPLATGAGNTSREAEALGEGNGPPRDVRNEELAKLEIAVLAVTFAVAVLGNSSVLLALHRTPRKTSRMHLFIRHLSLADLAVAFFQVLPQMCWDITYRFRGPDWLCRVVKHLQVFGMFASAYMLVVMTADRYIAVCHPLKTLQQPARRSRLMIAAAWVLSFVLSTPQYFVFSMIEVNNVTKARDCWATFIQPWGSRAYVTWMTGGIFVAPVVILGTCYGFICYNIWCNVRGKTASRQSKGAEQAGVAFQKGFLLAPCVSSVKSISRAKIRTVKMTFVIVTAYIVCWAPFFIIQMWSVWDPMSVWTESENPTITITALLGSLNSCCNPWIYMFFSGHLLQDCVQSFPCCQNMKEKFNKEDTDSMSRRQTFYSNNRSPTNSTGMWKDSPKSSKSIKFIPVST

Vasopressin V2 receptor [2] = target: T2, Vasopressin V2 receptor (Homo sapiens, UniProt P30518); assay: Agonist activity at human V2 receptor expressed in HEK293FT cells assessed as stimulation of calcium release by Aequorin based assay relative to AVP
[3] = target: T1, Oxytocin receptor (Homo sapiens); assay: Agonist activity at human OTR receptor expressed in HEK293FT cells incubated for 30 mins by beta-arrestin recruitment assay relative to OT
Vasopressin V2 receptor [4] = target: T2, Vasopressin V2 receptor; assay: Agonist activity at human V2 receptor expressed in HEK293FT cells incubated for 30 mins by beta-arrestin recruitment assay relative to AVP

SMILES | Emax (Vasopressin V1a receptor) [%] | Emax [1] [%] | Emax (Vasopressin V2 receptor [2]) [%] | Emax [3] [%] | Emax (Vasopressin V2 receptor [4]) [%]
Cc1cc(C(=O)N2Cc3cnn(C)c3Nc3ccccc32)ccc1CNC(=O)N1CCC[C@H]1C(=S)N(C)C | 5 to 10 |  |  |  | 
CC[C@H](C)[C@@H]1NC(=O)[C@H](Cc2ccc(OC)cc2)NC(=O)CCCSC[C@@H](C(=O)N2CCC[C@H]2C(=O)N[C@@H](CC(C)C)C(=O)NCC(N)=O)NC(=O)[C@H](CC(N)=O)NC(=O)[C@H](CCC(N)=O)NC1=O [CARBETOCIN] |  | 83 | 103 | 42 | 8

— ChEMBL document CHEMBL4196200 (J Med Chem, 2018)
